Measurements published in patent publication US6392049B1, “Process for preparing 2,4-dihydroxypyridine and 2,4-dihydroxy-3-nitropyridine” (Aventis Pharmaceuticals Inc., priority 1996, dated 2002).
pIC50: −log10 of the molar value.

By UniProt entry, the sequences of proteins in these tests, tags left out.
UniProt P30543, whole entry: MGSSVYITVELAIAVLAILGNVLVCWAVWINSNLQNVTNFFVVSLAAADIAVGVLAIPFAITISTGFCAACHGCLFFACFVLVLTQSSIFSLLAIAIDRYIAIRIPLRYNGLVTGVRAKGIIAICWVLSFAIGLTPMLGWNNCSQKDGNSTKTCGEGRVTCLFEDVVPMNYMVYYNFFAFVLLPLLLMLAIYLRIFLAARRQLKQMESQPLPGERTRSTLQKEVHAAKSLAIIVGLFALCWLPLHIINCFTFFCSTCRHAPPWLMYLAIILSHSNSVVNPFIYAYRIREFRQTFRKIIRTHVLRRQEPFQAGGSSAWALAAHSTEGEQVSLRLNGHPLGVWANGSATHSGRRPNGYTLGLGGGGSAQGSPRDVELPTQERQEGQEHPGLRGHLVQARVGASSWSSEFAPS
UniProt P25099, whole entry: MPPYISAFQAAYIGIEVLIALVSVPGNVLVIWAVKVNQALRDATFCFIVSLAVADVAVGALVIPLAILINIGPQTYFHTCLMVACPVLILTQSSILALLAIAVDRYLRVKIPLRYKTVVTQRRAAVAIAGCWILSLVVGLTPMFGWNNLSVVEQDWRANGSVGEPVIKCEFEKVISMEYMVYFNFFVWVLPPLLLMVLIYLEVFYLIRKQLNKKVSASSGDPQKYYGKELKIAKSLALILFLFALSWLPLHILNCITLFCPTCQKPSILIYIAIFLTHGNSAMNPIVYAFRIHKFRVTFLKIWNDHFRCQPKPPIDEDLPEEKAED

Legend:
A2 receptor = A2 receptor (Rattus norvegicus, UniProt P30543); experiment: A2 adenosine receptor binding, displacement of 3H-CGS 21680, rat brain striatum membranes; conditions: read-out: Adenosine Receptor Binding (IC50) A2; literature compounds, Table V, methods as above
A1 receptor = biological target: T1, A1 receptor (Rattus norvegicus, UniProt P25099); experiment: A1 adenosine receptor binding, displacement of 3H-CHA, whole rat brain membranes
T1 construct: using a membrane preparation of whole rat brain; from tissue; host or cells: whole rat brain membranes

| Compound | pIC50 (A2 receptor) | pIC50 (A1 receptor) |
| --- | --- | --- |
| C[C@H](Cc1ccccc1)Nc1ncnc2c1ncn2[C@@H]1O[C@H](CO)[C@@H](O)[C@H]1O [R-PIA, R-phenylisopropyladenosine, reference compound] | 6.52 |  |
| CCNC(=O)[C@H]1O[C@@H](n2cnc3c(N)nc(NCCc4ccc(CCC(=O)O)cc4)nc32)[C@H](O)[C@@H]1O [CGS21680, 2-[[2-[4-[2-carboxethyl)phenyl]ethyl]amino]-N-ethylcarboxamidoadenosine, reference compound] |  | 4.52 |
